Laboratory results as given in ChEMBL document CHEMBL2384966, “Probes for narcotic receptor mediated phenomena. 47. Novel C4a- and N-substituted-1,2,3,4,4a,9a-hexahydrobenzofuro[2,3-c]pyridin-6-ols” (Bioorg Med Chem, 2013).
Calls of active or inactive are those of the source. No cut-off for these calls is given here.

Sequences of proteins named here, by UniProt entry; tags and fusion partners are left off.
UniProt P41143, whole entry, looked up: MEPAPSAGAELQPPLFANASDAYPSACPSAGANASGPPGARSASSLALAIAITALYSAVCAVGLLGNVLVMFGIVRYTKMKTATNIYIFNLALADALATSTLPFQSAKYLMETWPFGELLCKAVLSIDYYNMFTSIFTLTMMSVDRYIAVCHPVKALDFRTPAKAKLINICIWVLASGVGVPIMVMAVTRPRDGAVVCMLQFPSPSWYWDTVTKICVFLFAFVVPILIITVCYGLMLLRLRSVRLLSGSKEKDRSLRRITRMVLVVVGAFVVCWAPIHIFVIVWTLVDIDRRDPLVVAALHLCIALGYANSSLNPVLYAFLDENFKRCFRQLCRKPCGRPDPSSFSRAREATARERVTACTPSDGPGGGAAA
UniProt P35372, whole entry, looked up: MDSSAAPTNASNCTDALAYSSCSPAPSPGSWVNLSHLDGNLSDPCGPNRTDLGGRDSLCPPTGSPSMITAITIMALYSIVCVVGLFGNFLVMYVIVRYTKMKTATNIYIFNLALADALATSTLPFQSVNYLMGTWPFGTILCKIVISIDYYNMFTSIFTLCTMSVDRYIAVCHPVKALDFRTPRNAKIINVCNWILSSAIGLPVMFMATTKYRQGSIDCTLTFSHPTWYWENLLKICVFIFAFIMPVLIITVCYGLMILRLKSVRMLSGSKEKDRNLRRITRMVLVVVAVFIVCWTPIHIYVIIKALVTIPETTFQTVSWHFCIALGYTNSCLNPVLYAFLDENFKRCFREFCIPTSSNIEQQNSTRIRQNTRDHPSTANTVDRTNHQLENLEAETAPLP

Experiments:
[1] = target: T1, Delta-type opioid receptor (Homo sapiens, UniProt P41143); test: Antagonist activity at human recombinant delta opioid receptor expressed in mouse/rat NG108-15 cell membranes assessed as inhibition of SNC80-induced [35S]GTPgammaS binding by liquid scintillation counting analysis; format: functional
[2] = organism: Homo sapiens; test: Selectivity ratio of Ki for human recombinant kappa opioid receptor to Ki for human recombinant delta opioid receptor
[3] = organism: Homo sapiens; test: Selectivity ratio of Ki for human recombinant kappa opioid receptor to Ki for human recombinant mu opioid receptor
[4] = organism: Homo sapiens; test: Selectivity ratio of Ki for human recombinant mu opioid receptor to Ki for human recombinant delta opioid receptor
[5] = target: T2, Mu-type opioid receptor (Homo sapiens, UniProt P35372); settings: CHO
[6] = target: T2, Mu-type opioid receptor; test: Partial agonist activity at human recombinant mu opioid receptor expressed in CHO cell membranes assessed as stimulation of [35S]GTPgammaS binding after 3 hrs by liquid scintillation counting analysis
[7] = target: T1, Delta-type opioid receptor; test: Agonist activity at human recombinant delta opioid receptor expressed in mouse/rat NG108-15 cell membranes assessed as stimulation of [35S]GTPgammaS binding after 3 hrs by liquid scintillation counting analysis
[8] = target: T1, Delta-type opioid receptor; test: Agonist activity at human recombinant delta opioid receptor expressed in mouse/rat NG108-15 cell membranes assessed as stimulation of [35S]GTPgammaS binding at 500 nM after 3 hrs by liquid scintillation counting analysis relative to control

| SMILES | Ke [1] [nM] | Ratio Ki [2] | Ratio Ki [3] | Ratio Ki [4] | Ke [5] [nM] | ED50 [6] | ED50 [7] [nM] | Emax [8] [%] |
| --- | --- | --- | --- | --- | --- | --- | --- | --- |
| CN1CC[C@@]2(CCCCc3ccccc3)c3cc(O)ccc3O[C@H]2C1 | > 200 | 6 | 4 | 2 | – | – | – | – |
| CN1CC[C@@]2(CCCc3ccccc3)c3cc(O)ccc3O[C@H]2C1 | 88 | 7 | 1.4 | 5 | – | – | – | – |
| CCCCC[C@@]12CCN(C)C[C@@H]1Oc1ccc(O)cc12 | > 200 | 29 | 11 | 3 | – | – | – | – |
| C=CCN1CC[C@@]2(CCc3ccccc3)c3cc(O)ccc3O[C@H]2C1 | 43 | 1.5 | 3 | 0.4 | 37 | inactive | – | – |
| C=CCN1C[C@H](C)N([C@H](c2ccc(C(=O)NCC)cc2)c2cccc(OC)c2)C[C@H]1C | – | – | – | – | – | – | 55 | 104 |
| CN1CC[C@@]2(CCc3ccccc3)c3cc(O)ccc3O[C@H]2C1 (racemic) | – | 6 | 54 | 0.1 | – | – | – | – |
| CCC[C@@]12CCN(C)C[C@@H]1Oc1ccc(O)cc12 | – | 3 | 20 | 0.2 | – | – | – | – |
| CN1CC[C@@]2(Cc3ccccc3)c3cc(O)ccc3O[C@H]2C1 (racemic) | – | 45 | 48 | 0.9 | – | – | – | – |
